Results reported in patent US9353075B2, “Disubstituted beta-lactones as inhibitors of N-acylethanolamine acid amidase (NAAA)” (The Regents of the University of California, priority 2011, dated 2016).

Chains of the proteins cited; added tags and fusions are not shown. Residues count along the entry.
UniProt Q02083, 29-359: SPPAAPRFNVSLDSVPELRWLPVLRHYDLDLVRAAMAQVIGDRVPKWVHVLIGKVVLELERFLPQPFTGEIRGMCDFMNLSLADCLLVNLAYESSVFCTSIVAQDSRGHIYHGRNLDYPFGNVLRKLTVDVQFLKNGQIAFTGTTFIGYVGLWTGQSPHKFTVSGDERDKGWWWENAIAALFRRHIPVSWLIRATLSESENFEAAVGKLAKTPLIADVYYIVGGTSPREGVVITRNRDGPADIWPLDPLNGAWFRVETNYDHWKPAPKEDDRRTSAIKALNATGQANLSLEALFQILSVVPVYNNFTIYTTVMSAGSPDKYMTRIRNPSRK
UniProt Q5KTC7, 34-362: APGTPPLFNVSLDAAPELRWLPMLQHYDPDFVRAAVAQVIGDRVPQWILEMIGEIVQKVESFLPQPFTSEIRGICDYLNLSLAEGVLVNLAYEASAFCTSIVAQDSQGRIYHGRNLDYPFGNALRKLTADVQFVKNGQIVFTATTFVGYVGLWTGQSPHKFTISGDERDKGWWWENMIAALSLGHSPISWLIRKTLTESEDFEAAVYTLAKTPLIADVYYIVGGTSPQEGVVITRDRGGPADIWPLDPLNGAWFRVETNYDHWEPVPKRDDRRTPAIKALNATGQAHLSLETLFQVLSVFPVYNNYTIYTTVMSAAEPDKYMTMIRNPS

How the values were obtained:
h-NAAA = h-NAAA (Homo sapiens (Human), UniProt Q02083); experiment: Fluorogenic h-NAAA assay; assay type: biochemical
Protocol: The assay was run in Optiplate 96-wells black plates, in a total reaction volume of […]. NAAA protein preparations (4 ng) were pre-incubated for 10 minutes with various concentrations of test compounds or vehicle control (5% DMSO) in 100 mM citrate/phosphate buffer (pH 4.5) containing 3.0 mM DTT, 0.1% Triton X-100, 0.05% BSA, 150 mM NaCl. N-(4-methyl-2-oxo-chromen-7-yl)-hexadecanamide was used as a substrate (5.0 μM) and the reaction carried over for 30 minutes at 37° C. Fluorescence in the samples was quantified in a Perkin Elmer Envision plate reader using an excitation wavelength of 360 nm and emission 460 nm. IC50 values were calculated by non-linear regression analysis of log [concentration]/inhibition curves using GraphPad Prism 5 (GraphPad Software Inc., CA—USA) applying a standard slope curve fitting.
The assay was run in Optiplate 96-wells black plates, in a total reaction volume of 200 μL. […] The samples were then read in a Perkin Elmer Envision plate reader using an excitation wavelength of 360 nm and emission 460 nm. IC50 values were calculated by non-linear regression analysis of log [concentration]/inhibition curves using GraphPad Prism 5 (GraphPad Software Inc., CA—USA) applying a standard slope curve fitting.

r-NAAA = r-NAAA (Rattus norvegicus (Rat), UniProt Q5KTC7); experiment: r-NAAA inhibition, rat lung lysosomal NAAA preparation, UPLC/MS; assay type: biochemical
Protocol: Lysosomal NAAA protein preparation were obtained by homogenizing male Sprague-Dawley rat lungs (Charles River) in 20 mM Tris-HCl buffer pH 7.4 containing 0.32M sucrose. Samples were centrifuged at 800×g for 15 minutes at 4° C. Supernatants were then centrifuged at 12,000 g for 30 minutes at 4° C. Pellets were then resuspended in PBS pH 7.4 and subjected to a freeze/thaw cycle at −80° C. The suspension was finally centrifuged at 105,000×g for 1 hour at 4° C. The supernatant was then used in the enzymatic assay.
NAAA protein preparation was pre-incubated with various concentrations of test compounds or vehicle control in 100 mM NaH2PO4/Citrate buffer, 1% Triton-X, 3 mM DTT (pH 4.5) for 30 minutes at 37° C. Samples were then incubated with heptadecenoylethanolamide (50 μM, Avanti Polar Lipids) at 37° C. for 30 min. […] Samples were then analyzed by UPLC/MS (Acquity, Waters). […] The [M−H]^− ion was monitored in the selected-ion monitoring mode (m/z values: heptadecenoic acid 267.37, heptadecanoic acid 269.37). […] Inhibition of NAAA activity was calculated as reduction of heptadecenoic acid in the samples compared to vehicle controls. IC50 values were calculated by non-linear regression analysis of log [concentration]/inhibition curves using GraphPad Prism 5 (GraphPad Software Inc., CA—USA) applying a standard slope curve fitting.

Row | IC50 (h-NAAA) [nM] | IC50 (r-NAAA) [nM] | SMILES
1 | 19 |  | CC(C)[C@H]1OC(=O)[C@@H]1NC(=O)OCCCCCc1ccccc1 (relative stereo) [Example 51, 5-Phenylpentyl-N-[(2R*,3R*)-2-isopropyl-4-oxo-oxetan-3-yl]-carbamate]
2 | 68 |  | CC(C)[C@@H]1OC(=O)[C@@H]1NC(=O)OCCCCCc1ccccc1 (relative stereo) [Example 53, 5-Phenylpentyl-N-[(2S*,3R*)-2-isopropyl-4-oxo-oxetan-3-yl]-carbamate]
3 |  | 3430 | C[C@@H]1OC(=O)[C@@H]1NC(=O)OCC(C)(C)CCc1ccccc1 [Example 20, (2,2-dimethyl-4-phenyl-butyl)-N-[(2S,3R)-2-methyl-4-oxo-oxetan-3-yl]-carbamate]
4 |  | 5420 | C[C@@H]1OC(=O)[C@@H]1NC(=O)OC1CCCCC1 [Example 29, Cyclohexyl-N-[(2S,3R)-2-methyl-4-oxooxetan-3-yl]-carbamate]
